The values below come from US20260275324A1, “UNNATURAL AMINO ACID IN CELLULO SYNTHESIS FOR SITE-SPECIFIC PROTEIN MODIFICATION” (The Chinese University of Hong Kong, priority 2023, published 2026).

For the assay, the target named is GST-CDK4 (Sino Biological) (UniProt P11802). Description: microscale thermophoresis (MST); Alexa Fluor 647-labelled MBP-P16p at 70 nM, GST-CDK4 titrated from 3.84 µM.

For the substance “MBP-P16p (linear counterpart of MBP-cycP16p) (from UniProt P0AEX9 27-392; P42771 83-103) (other; other documents disagree on this pair)”, the equilibrium dissociation constant (Kd) (usually the concentration at which binding is half-saturated) is 117 nM.
